According to PMC10216341 (Brain Sciences, 2023):
“And” between values parts separate entries of the source, which are not always exact repeats. Equal values may be shown once.

Chains of the proteins cited; added tags and fusions are not shown. Residues count along the entry.
UniProt P22303, 32-614: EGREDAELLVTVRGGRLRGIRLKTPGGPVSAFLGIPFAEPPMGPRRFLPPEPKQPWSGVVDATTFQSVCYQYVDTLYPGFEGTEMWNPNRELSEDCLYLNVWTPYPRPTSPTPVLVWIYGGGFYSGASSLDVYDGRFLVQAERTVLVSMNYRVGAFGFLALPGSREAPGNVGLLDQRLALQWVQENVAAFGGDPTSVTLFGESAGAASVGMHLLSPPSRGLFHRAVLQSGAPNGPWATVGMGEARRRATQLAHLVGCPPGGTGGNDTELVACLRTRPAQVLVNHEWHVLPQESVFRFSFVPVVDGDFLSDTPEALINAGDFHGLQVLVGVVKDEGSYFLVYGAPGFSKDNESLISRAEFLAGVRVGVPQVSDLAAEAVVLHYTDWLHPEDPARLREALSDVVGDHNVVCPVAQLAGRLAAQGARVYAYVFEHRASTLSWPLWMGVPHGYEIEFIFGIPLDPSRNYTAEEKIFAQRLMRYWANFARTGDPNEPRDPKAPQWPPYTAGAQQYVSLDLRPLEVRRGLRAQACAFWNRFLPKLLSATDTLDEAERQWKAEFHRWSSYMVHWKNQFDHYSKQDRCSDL

Biological target: T1, acetylcholinesterase (AChE) (Homo sapiens, UniProt P22303)
T1 construct: endogenous in cells; host or cells: SH-SY5Y human neuroblastoma cells (ECACC-94030304), undifferentiated and differentiated
Experiment: cell-based
Settings: AChE Inhibition IC50

Question: For CNC(=O)O/N=C/C(C)(C)SC [Aldicarb, [(E)-(2-methyl-2-methylsulfanylpropylidene)amino] N-methylcarbamate], which IC50 is on record?
Answer: Its IC50 is 0.62 µM and 0.38 µM.
